Patent publication US5863950A, “HIV protease inhibitors” (Agouron Pharmaceuticals, Inc., priority 1994, dated 1999)

Molecular target: T1, HIV-1 protease (Human immunodeficiency virus type 1 group M subtype B, UniProt P04585)
T1 construct: purified HIV-1 protease
Test: biochemical
Format: biochemical
Protocol: 1. Proteolytic activity of purified HIV-1 protease was routinely measured using the chromogenic assay developed by Richards et al. (J. Biol. Chem. 265: 7733 (1990)). Synthetic peptide His-Lys-Ala-Arg-Val-Leu-Phe (pNO2)-Glu-Ala-Nle-Ser-NH2 (American Peptide Company) was used as the substrate.
2. The assay was carried out in 0.5M NaCl, 50 mM MES pH 5.6, 2% DMSO (dimethylsulfoxide) at 37° C. Cleavage of the scissile bond between leucine and paranitro-phenylalanine (Phe(pNO2)) was assayed by spectrophotometric monitoring of the decrease in absorbance at 305 nm. Initial velocity was determined as the rate of decline of absorbance during the first 100 seconds of reaction.
3. […] Between 15-25 concentrations of inhibitor were added and velocity of reaction was measured at each of the concentrations, as described above.
4. Inhibition constants were calculated using the method of Jackson et al. (Adv. in Enzyme Regulation 22: 187 (1984)).

Row | SMILES | IC50 [µM] | Ki [µM] | activity against the HIV protease enzyme
1 | CCC1(N(CCO)C(=O)c2ccccc2CCC(O)Cc2ccc(C)cc2C(=O)N(CCO)C(C)(C)c2ccccc2)CCCC1 (centres unmarked) [Example 18] | 0.089 | – | –
2 | CCC1(N(CCO)C(=O)c2ccccc2CC[C@@H](O)Cc2ccc(C)cc2C(=O)N(CCO)C(C)(C)c2ccccc2)CCCC1 [Example 112] | 0.076 | 0.0025 | –
3 | CCC1(N(CCO)C(=O)c2ccccc2CC[C@@H](O)Cc2ccc(C)cc2C(=O)N(CCO)C(C)(C)c2ccccc2)CCCC1 [Example 116a] | – | – | more active
4 | CCC1(N(CCO)C(=O)c2ccccc2CC[C@H](O)Cc2ccc(C)cc2C(=O)N(CCO)C(C)(C)c2ccccc2)CCCC1 [Example 116b] | – | – | less active
